Data published in ChEMBL document CHEMBL1121722, “Nonquaternary cholinesterase reactivators. Dialkylaminoalkyl thioesters of alpha-ketothiohydroximic acids as reactivators of diisopropyl phosphorofluoridate inhibited acetylcholinesterase” (1981).

Sequences of proteins named here, by UniProt entry; tags and fusion partners are left off. A change or cut given only in a name is not applied to a line headed by its entry.
UniProt P22303: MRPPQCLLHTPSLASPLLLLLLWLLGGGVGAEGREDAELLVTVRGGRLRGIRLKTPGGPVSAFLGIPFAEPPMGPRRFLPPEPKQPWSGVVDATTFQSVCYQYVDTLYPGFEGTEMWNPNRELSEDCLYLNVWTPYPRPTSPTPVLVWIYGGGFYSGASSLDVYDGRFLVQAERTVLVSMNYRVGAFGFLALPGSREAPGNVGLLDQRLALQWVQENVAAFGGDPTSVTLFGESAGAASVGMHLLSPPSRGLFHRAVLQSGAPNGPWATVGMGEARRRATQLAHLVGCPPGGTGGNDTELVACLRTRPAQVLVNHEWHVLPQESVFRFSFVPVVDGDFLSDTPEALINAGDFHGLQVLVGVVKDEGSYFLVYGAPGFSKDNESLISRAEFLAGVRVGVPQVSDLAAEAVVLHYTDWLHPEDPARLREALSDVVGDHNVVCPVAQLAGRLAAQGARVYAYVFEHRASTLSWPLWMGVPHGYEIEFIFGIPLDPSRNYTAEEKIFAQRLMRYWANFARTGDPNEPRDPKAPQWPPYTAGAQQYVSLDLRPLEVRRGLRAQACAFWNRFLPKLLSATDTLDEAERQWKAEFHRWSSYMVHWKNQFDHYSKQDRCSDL

What was measured:
[1] = target: Acetylcholinesterase (Homo sapiens) (UniProt P22303); assay: kb for reactivation of acetylcholinesterase at concentration of 2M*10e4 [HOX] and 10 Me-1*10e-3 [OX]e-1 was determined; Expressed as kb, 1/M 1/min
[2] = target: Acetylcholinesterase (Homo sapiens) (UniProt P22303); assay: keff for reactivation of acetylcholinesterase at concentration of 2M*10e4 [HOX] and 10 Me-1*10e-3 [OX]e-1 was determined; Expressed as keff, 1/M 1/min
[3] = target: Acetylcholinesterase (Homo sapiens) (UniProt P22303); assay: Maximum attainable percent reactivation obtained for a range of concentrations of 2M*10e4 HOX and 0.752M*10e4OX
[4] = target: Acetylcholinesterase (Homo sapiens) (UniProt P22303); assay: kb for reactivation of acetylcholinesterase at concentration of 2M*10e4 [HOX] and 13.3Me-1*10e-3 [OX]e-1 was determined; Expressed as kb, 1/M 1/min
[5] = target: Acetylcholinesterase (Homo sapiens) (UniProt P22303); assay: Ratio of [EOP'']infinity to that of [EOH]infinity for reactivation of acetylcholinesterase at concentration of 2M*10e4 [HOX] and 13.3Me-1*10e-3 [OX]e-1; Expressed as [EOP'']infinity/[EOH]infinity

SMILES | kb [1] [M⁻¹ s⁻¹] | k eff [2] [M⁻¹ s⁻¹] | Reactivation [3] [%] | kb [4] [M⁻¹ s⁻¹] | [EOP']infinity/[EOH]infinity [5]
C[n+]1ccccc1C=NO | 91.7 | 26.7 | – | – | –
CCN(CC)CCS/C(=N\O)C(=O)c1ccc(OC)cc1 | – | – | 3.3 | 0.5 | 2.69
